Patent US8329645B2, “Polymyxin derivatives and uses thereof” (priority 2008, dated 2012)

Test system: all strains (17) belonging to the group consisting of E. coli, K. oxytoca, E. cloacae, and C. freundii
Assay: E-test sensitization by NAB7061, summary over strains
Assay type: cell-based
Conditions: rifampin: all 17 strains; clarithromycin: fifteen out of seventeen strains

With CC[C@H]1OC(=O)[C@H](C)[C@@H](O[C@H]2C[C@@](C)(OC)[C@@H](O)[C@H](C)O2)[C@H](C)[C@@H](O[C@@H]2O[C@H](C)C[C@H](N(C)C)[C@H]2O)[C@](C)(OC)C[C@@H](C)C(=O)[C@H](C)[C@@H](O)[C@]1(C)O [Clarithromycin] the “MIC of antibiotic in the presence of NAB7061 (4 μg/ml)” value was ≤ 0.25 µg/mL.
